Assay results taken from patent US10167279B2 (NOVARTIS AG, priority 2014, dated 2019).

The chains behind the UniProt entries cited, without tags or fusion partners.
UniProt P04049, whole entry Y340E/Y341E: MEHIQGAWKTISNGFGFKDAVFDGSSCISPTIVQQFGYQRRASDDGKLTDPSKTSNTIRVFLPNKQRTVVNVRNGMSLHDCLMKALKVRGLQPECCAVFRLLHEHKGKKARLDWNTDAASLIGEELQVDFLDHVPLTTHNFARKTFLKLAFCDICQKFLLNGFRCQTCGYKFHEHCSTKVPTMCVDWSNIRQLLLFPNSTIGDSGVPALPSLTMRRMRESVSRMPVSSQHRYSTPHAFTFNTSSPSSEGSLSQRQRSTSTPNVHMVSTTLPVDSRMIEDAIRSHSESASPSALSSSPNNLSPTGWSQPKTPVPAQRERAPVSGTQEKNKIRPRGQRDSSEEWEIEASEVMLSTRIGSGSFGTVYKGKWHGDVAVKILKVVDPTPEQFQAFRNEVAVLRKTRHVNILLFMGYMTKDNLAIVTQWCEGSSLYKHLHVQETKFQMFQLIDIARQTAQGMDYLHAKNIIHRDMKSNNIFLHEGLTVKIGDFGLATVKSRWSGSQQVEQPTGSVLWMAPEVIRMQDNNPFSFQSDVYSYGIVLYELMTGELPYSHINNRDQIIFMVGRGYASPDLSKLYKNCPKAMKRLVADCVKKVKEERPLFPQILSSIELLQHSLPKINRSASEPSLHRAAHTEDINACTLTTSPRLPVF

Molecular target: C-Raf FL (Homo sapiens (Human), UniProt P04049, Y340E/Y341E)
Assay: In vitro Raf activity determination (Alpha Screen, phospho-MEK), C-Raf FL (full length, Y340E/Y341E)
Assay type: biochemical
Conditions: ATP 1 μM; 60 min pre-incubation; 1 hour reaction; column head does not say FL or TR
Source text: The activity of a compound according to the present invention can be assessed by well-known in vitro & in vivo methods. Raf inhibition data provided herein was obtained using the following procedures.
Sf9 cells co-expressing both proteins were lysed and subjected to immobilized nickel chromatography and eluted with Imidazole. A second column (StrepII binding column) was used and eluted with desthiobiotin. Protein Tags were removed using Prescission enzyme and the protein was further purified using a flowthrough step to remove tags.
C-Raf TR refers to a truncated C-Raf protein, a Δ1-324 deletion mutant. C-Raf FL refers to the full-length C-Raf protein.
Full length MEK1 with an inactivating K97R ATP binding site mutation is utilized as a RAF substrate. The MEK1 cDNA was subcloned with an N-terminal (his)6 tag into a vector for E. Coli expression. […]
Assay protocol: Raf and biotinylated Mek (kinase dead) were combined at 2× final concentrations in assay buffer (50 mM Tris, pH 7.5, 15 mM MgCl2, 0.01% BSA and 1 mM DTT) and dispensed […] per well in assay plates (Greiner white 384 well assay plates #781207) containing […] of 40× of a Raf kinase inhibitor test compound diluted in 100% DMSO. […] A lid was placed on top of the plate and incubated for 1 hour at room temperature, after which the luminescence was read on a PerkinElmer Envision instrument. […]

COc1ncc(-c2cc(NC(=O)c3cc(C(C)(F)F)ccn3)cnc2C)cc1C1(O)COC1 [Example 91]
IC50: 2.39 nM
